Results as given in US20230081390A1, “INHIBITORS OF RAF KINASES” (Kinnate Biopharma Inc., priority 2019, published 2023).

Protein sequences, listed by entry. Tags and fused reporters are not part of them.
UniProt P04049, whole entry: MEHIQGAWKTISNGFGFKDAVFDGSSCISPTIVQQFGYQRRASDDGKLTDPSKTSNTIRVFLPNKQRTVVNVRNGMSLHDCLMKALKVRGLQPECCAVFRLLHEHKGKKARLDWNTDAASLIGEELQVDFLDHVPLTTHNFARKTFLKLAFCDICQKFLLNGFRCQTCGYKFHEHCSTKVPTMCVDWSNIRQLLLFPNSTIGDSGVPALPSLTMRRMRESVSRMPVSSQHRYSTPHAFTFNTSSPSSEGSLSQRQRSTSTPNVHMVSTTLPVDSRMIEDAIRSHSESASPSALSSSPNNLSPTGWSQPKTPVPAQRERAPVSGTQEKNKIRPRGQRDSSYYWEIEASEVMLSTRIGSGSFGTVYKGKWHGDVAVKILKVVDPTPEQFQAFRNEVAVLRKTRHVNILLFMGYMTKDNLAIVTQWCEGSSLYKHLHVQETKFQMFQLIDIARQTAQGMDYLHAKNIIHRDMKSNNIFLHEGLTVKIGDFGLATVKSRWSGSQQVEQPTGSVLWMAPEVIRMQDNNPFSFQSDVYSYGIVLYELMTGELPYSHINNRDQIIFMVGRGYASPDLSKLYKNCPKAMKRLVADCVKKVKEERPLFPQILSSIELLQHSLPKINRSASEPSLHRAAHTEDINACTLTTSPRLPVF

Target: human RAF1 (Homo sapiens, UniProt P04049)
Experiment: Protein kinase assay (33P-ATP filter binding), human RAF1, 10-dose IC50
Format: biochemical
Settings: read-out: RAF-1 IC50, MEK1 (K97R) substrate 3 micromolar, ATP 10 micromolar

## Cc1cc(F)c(NC(=O)N2CCC=C(C(F)(F)F)C2)cc1-c1cc(OCCO)nc(N2CCOCC2)c1
  IC50: < 10 nM
